{
  "sequences": {"note": "The chains behind the UniProt entries cited, without tags or fusion partners. Residues count along the entry.", "UniProt P26010, 20-798 limits assumed": "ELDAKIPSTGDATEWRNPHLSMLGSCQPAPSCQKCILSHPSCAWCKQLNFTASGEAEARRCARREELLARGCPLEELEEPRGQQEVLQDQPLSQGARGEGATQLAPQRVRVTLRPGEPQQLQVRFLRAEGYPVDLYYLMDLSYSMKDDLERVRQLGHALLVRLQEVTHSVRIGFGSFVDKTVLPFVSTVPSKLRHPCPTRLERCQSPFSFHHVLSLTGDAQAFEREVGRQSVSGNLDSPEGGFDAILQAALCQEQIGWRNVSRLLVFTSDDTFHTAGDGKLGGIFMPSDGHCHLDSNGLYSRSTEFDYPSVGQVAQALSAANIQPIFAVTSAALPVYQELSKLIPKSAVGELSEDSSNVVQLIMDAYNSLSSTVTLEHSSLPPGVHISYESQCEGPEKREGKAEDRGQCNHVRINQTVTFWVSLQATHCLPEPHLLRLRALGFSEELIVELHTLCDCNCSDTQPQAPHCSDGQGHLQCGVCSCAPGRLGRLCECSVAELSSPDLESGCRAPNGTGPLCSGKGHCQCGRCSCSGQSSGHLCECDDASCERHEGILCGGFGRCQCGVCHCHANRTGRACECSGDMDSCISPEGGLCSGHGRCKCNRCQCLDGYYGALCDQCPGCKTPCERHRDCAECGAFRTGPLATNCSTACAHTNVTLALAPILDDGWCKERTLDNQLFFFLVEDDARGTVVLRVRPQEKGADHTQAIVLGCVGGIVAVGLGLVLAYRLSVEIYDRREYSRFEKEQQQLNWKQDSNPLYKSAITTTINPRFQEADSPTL"},
  "source": "patent US10562898B2",
  "about": "“Substituted benzenesulfonamides as inhibitors of alpha-4 beta-7 integrin activity” (EA PHARMA CO., LTD., priority 2016, dated 2020)",
  "key": {"[1]": {"biological_target": "T1, α4β7 integrin (Homo sapiens, UniProt P13612+P26010)", "assay": "MAdCAM-1/α4β7 integrin binding inhibitory activity evaluation test in presence of serum", "conditions": "read-out: α4β7 Serum Added IC50; RPMI-8866 cells, recombinant mouse MAdCAM-1/Fc, 50% human serum", "description": "(3) MAdCAM-1/α4β7 Integrin Binding Inhibitory Activity Evaluation Test in Presence of Serum (1)\n(§1) Each test substance was measured in terms of an ability to inhibit the MAdCAM-1 binding of a human B cell line, namely, a cell line RPMI-8866, which is known to express α4β7 integrin.\n(§2) A solution of recombinant mouse MAdCAM-1/Fc (R&D Systems, Inc.) (1 μg/mL) diluted with a buffer A (carbonate buffer, pH 9.6) was added in an amount of 50 μL/well to a 96-well microtiter plate, followed by incubation at 4° C. overnight. After the plate was washed with PBS once, 150 μL/well of Block Ace (Snow Brand Milk Products Co., Ltd.) was added, followed by incubation at room temperature for 2 hours. After removal, the plate was washed with PBS once.\nThen, 100 μL of the RPMI-8866 cells (2×10^6 cells/mL) and 100 of the test substance at each of various concentrations diluted with a binding buffer (DMEM containing 40 mM HEPES, 0.2% BSA, and 4 mM MnCl2) were added to the plate coated with the MAdCAM-1/Fc (5×10^5 cells/well) such that 50% human serum was contained at the final concentration. Then, incubation was allowed to proceed at 30° C. for 15 to 60 minutes. […] After 30 μL of a stop solution (Promega, CytoTox 96 Non-Radioactive Cytotoxicity Assay) was added to each, and then an absorbance at 490 nm was measured using a plate reader. […]"}, "[2]": {"biological_target": "α4β1 integrin (Homo sapiens, UniProt P05556+P13612)", "assay": "VCAM-1/α4β1 integrin binding inhibitory activity evaluation test (Jurkat cells binding to VCAM-1/Fc)", "conditions": "read-out: α4β1 IC50, recombinant human VCAM-1/Fc", "description": "(1) VCAM-1/α4β1 Integrin Binding Inhibitory Activity Evaluation Test\nEach test substance was measured in terms of an ability to inhibit the VCAM-1 binding of a human T cell line, namely, a cell line Jurkat, which is known to express α4β1 integrin.\nas §2, with “of recombinant human VCAM-1/Fc (R&D Systems,” for “of recombinant mouse MAdCAM-1/Fc (R&D Systems,”, “9.6) was placed in an” for “9.6) was added in an”, “50 μL/well in a 96-well” for “50 μL/well to a 96-well”\n(§3) Then, 100 μL of the Jurkat cells (2×10^6 cells/mL) and 100 μL of the test substance at each of various concentrations diluted with a binding buffer (DMEM containing 40 mM HEPES, 0.2% BSA, and 4 mM MnCl2) were added to the plate coated with the VCAM-1/Fc (5×10^5 cells/well), followed by incubation at 30° C. for 15 to 60 minutes. After the cells were bound to the wells, the plate was washed with PBS to remove unbound cells. […] After 30 μL of a stop solution (Promega, CytoTox 96 Non-Radioactive Cytotoxicity Assay) was added to each, and then an absorbance at 490 nm was measured using a plate reader. […]"}, "[3]": {"biological_target": "T1, α4β7 integrin", "assay": "MAdCAM-1/α4β7 integrin binding inhibitory activity evaluation test (RPMI-8866 cells binding to MAdCAM-1/Fc)", "conditions": "read-out: α4β7 IC50, recombinant mouse MAdCAM-1/Fc, no serum", "description": "(2) MAdCAM-1/α4β7 Integrin Binding Inhibitory Activity Evaluation Test\nas §1\nas §2, with “(0.75” for “(1”\nas §3, with “of the RPMI-8866 cells (2×10^6” for “of the Jurkat cells (2×10^6”, “were added on the plate” for “were added to the plate”, “with the MAdCAM-1/Fc (5×10^5 cells/well),” for “with the VCAM-1/Fc (5×10^5 cells/well),”"}},
  "data": [
    {"smiles": "Cc1c(C)n(C)c(=O)n(-c2ccc(C[C@H](NC(=O)c3cc(F)c(NS(=O)(=O)c4ccc(NC(=O)C(C)(C)C)c(F)c4)cc3F)C(=O)O)cc2)c1=O", "values": [
      {"measurement": "IC50", "setting": "[1]", "result": 22, "unit": "nM"},
      {"measurement": "IC50", "setting": "[2]", "result": 1800, "unit": "nM"},
      {"measurement": "IC50", "setting": "[3]", "result": 0.93, "unit": "nM"}
    ]}
  ]
}
